From ChEMBL document CHEMBL4385626, “SAR optimization studies on modified salicylamides as a potential treatment for acute myeloid leukemia through inhibition of the CREB pathway” (Bioorg Med Chem Lett, 2019)

Assay: Clearance in NSG mouse at 2 mg/kg, iv measured after 7 to 150 mins by LC/MS/MS analysis
Assay type: ADME, organism-based
Settings: in vivo
Outline: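 Single IV dose of 2 mg/kg to NSG mice (NOD.Cg-Prkdc scid Il2rg tm1Wjl/SzJ), vehicle DMSO/Kolliphor EL/water (3/5/82). Compound levels measured in plasma at various times after injection. PK parameters derived from the plasma time-concentration profiles.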

Q: Which CL does the source give for `O=C(Nc1ccc([N+](=O)[O-])cc1Cl)c1cc(Cl)ccc1O` [NICLOSAMIDE] here?
A: 0.0037 mg/ng/mL/h
